Laboratory results reported in US20090196918A1, “Liposomal formulations of hydrophobic lactone drugs in the presence of metal ions” (University of Kentucky Research Foundation, priority 2008, published 2009).

Assay: Maximum tolerated dose of DB-67 by the intravenous route
Settings: for 5 days

CC[C@@]1(O)C(=O)OCc2c1cc1n(c2=O)Cc2c-1nc1ccc(O)cc1c2[Si](C)(C)C(C)(C)C [DB-67, 7-t-butyldimethylsilyl-10-hydroxycamptothecin]
maximum tolerated dose (MTD): 7.5 mg/kg/day
